# Reference: patent EP4834897A1, “COMPOUNDS WITH TWO AZAHETEROCYCLES SUBSTITUTED ISOINDOLINONE SKELETON AND USES THEREOF” (dated 2026)
# Chains of the proteins cited; added tags and fusions are not shown.
# UniProt Q96SW2, whole entry: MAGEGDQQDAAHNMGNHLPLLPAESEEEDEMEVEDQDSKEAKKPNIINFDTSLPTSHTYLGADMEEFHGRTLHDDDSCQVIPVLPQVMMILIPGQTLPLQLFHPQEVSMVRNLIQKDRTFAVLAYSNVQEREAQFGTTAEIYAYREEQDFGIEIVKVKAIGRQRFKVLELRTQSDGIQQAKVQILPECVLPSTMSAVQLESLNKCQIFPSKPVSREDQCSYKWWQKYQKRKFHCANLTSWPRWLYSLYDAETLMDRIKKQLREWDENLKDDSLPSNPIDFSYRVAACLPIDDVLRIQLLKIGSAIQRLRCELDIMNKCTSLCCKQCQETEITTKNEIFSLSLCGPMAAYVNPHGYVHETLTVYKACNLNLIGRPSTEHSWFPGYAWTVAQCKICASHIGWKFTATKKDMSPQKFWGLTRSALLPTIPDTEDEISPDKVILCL
# UniProt P48729, whole entry: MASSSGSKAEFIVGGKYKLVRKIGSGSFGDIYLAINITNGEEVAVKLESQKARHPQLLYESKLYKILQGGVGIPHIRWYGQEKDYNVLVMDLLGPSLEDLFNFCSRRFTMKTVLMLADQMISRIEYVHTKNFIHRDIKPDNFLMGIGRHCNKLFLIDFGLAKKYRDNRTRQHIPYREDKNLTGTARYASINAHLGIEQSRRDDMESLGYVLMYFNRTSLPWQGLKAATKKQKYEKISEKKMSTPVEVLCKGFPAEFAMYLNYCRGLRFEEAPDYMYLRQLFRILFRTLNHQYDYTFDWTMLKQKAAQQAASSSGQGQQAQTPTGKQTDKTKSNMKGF
# UniProt P15170, whole entry: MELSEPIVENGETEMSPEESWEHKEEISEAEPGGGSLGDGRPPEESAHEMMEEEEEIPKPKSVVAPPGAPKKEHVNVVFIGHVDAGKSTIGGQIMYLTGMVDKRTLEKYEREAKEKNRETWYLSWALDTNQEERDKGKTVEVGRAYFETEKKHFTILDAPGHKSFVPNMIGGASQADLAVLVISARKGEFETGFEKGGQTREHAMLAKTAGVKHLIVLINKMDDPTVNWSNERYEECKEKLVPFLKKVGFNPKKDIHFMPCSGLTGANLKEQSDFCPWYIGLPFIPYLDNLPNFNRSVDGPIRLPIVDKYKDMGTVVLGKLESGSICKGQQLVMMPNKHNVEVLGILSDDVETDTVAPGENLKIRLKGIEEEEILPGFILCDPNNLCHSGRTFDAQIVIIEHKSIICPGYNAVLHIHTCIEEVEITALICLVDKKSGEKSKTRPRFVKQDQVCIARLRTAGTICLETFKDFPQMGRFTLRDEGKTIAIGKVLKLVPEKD
# UniProt Q13422, whole entry: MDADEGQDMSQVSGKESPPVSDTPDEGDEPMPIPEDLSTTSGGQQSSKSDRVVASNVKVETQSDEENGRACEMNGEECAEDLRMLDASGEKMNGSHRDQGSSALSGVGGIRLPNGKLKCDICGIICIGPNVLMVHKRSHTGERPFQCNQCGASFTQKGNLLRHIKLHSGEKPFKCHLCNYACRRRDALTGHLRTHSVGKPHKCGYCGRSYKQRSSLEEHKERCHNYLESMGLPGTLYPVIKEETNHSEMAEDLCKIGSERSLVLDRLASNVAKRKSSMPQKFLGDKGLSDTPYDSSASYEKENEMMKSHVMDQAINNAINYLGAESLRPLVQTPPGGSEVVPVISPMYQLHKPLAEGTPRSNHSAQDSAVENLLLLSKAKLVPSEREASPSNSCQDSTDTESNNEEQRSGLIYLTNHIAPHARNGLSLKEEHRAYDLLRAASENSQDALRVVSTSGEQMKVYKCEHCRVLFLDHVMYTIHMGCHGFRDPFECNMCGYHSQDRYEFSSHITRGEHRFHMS
# UniProt Q9UKS7, whole entry: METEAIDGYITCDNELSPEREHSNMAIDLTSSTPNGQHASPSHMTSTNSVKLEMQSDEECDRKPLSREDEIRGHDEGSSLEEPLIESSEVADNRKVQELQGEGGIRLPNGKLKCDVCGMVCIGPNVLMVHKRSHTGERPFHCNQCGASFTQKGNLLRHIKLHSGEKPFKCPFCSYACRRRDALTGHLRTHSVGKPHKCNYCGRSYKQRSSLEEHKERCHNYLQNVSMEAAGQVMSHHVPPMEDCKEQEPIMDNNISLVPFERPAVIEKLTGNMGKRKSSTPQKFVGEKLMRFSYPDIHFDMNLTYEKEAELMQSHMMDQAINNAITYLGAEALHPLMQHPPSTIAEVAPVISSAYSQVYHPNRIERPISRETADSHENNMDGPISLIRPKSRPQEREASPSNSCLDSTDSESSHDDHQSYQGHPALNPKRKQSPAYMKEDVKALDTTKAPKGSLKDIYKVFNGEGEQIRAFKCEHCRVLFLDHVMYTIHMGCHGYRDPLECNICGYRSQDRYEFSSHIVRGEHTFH
# UniProt Q9UKT9, whole entry: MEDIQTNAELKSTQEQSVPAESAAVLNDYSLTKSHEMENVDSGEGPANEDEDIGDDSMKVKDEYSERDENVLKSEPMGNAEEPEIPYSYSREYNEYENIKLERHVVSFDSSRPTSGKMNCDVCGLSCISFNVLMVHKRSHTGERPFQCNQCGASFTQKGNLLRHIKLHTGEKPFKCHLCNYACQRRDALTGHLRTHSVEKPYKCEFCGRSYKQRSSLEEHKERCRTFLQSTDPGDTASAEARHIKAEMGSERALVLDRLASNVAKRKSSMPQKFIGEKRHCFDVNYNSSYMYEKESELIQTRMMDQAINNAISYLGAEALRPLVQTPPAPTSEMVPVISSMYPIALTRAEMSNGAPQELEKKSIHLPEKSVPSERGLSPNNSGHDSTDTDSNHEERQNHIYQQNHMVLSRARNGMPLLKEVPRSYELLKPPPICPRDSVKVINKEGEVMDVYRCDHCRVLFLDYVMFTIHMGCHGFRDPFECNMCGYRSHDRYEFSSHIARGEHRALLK
# UniProt P30291, whole entry: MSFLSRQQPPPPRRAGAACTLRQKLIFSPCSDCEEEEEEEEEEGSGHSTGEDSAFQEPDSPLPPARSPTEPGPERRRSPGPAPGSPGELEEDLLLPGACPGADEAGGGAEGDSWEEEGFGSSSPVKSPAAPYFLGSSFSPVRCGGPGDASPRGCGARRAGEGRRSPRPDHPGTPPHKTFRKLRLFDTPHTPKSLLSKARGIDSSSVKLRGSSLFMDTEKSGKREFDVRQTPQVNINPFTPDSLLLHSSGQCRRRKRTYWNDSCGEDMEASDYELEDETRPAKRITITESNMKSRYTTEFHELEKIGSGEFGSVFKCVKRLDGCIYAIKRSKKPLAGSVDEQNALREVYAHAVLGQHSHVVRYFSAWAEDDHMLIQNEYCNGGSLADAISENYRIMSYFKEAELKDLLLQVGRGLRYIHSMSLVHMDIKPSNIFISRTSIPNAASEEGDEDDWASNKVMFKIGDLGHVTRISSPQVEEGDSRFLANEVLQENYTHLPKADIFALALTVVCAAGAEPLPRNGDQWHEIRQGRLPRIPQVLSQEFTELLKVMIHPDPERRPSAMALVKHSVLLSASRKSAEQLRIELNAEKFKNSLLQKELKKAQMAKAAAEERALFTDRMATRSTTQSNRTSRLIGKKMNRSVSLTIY
# UniProt Q16531, whole entry partner: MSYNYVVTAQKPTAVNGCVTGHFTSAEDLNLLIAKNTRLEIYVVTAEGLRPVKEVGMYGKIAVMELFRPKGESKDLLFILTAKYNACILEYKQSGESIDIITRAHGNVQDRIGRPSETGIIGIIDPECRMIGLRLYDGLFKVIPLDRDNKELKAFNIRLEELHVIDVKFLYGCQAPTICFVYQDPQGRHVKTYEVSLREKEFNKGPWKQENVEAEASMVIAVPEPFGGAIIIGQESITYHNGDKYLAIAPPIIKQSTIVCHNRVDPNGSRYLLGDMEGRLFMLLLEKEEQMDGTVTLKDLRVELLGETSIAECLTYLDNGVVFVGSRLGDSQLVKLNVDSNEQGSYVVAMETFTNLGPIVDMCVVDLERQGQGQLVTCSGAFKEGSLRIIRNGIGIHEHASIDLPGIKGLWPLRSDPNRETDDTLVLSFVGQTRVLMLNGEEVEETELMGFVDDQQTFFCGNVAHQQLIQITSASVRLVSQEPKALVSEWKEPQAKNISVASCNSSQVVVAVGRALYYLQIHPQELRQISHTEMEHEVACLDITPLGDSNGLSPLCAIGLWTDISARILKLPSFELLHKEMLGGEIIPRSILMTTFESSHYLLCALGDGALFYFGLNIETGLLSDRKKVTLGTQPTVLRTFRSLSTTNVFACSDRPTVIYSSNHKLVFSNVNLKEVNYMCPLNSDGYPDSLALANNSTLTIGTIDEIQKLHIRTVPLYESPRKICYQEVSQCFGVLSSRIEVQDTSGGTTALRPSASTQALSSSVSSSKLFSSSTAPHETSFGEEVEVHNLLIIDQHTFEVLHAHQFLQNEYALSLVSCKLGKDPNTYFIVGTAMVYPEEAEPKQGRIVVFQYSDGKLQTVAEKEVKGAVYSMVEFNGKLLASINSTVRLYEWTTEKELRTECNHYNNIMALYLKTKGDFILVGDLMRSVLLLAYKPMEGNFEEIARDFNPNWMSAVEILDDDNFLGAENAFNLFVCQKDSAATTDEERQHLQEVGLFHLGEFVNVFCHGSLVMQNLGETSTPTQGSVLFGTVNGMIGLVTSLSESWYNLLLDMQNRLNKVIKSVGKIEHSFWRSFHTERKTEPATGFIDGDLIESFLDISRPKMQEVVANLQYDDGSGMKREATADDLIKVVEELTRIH
# Target: CRBN (Homo sapiens, UniProt Q96SW2)
# Assay: CRBN binding affinity by HTRF (CEREBLON BINDING kit)
# Details: CRBN binding, HTRF, compound at 0.5 µM
row,Compound,Inhibition Rate at 0.5 µM (%)
1,O=C1CCC(N2Cc3cc(C(=O)N4CCC(N5CCN(c6cccc(Cl)c6Cl)CC5)CC4)c(F)cc3C2=O)C(=O)N1 (stereo not shown),a2 (20% < a2 ≤ 30%)
2,O=C1CCC(N2Cc3cc(C(=O)N4CCC(N5CCN(C(c6ccccc6)c6ccccc6)CC5)CC4)cc(F)c3C2=O)C(=O)N1 (stereo not shown),a3 (30% < a3 ≤ 40%)
3,O=C1CCC(N2Cc3c(CN4CCC(N5CCN(C(c6ccccc6)c6ccccn6)CC5)C(F)(F)C4)cccc3C2=S)C(=O)N1 (stereo not shown),a5 (53% < a5 ≤ 60%)
4,O=C1CCC(N2Cc3cc(CCN4CCC(N5CC=C(c6cccc(Cl)c6Cl)CC5)C(F)(F)C4)ccc3C2=O)C(=O)N1 (stereo not shown),a4 (40% < a4 ≤ 53%)
5,O=C1CCC(N2Cc3cc(CN4CCC(N5CCN(c6noc7cc(F)ccc67)CC5)CC4)c(F)cc3C2=O)C(=O)N1 (stereo not shown),a4 (40% < a4 ≤ 53%)

# Same assay, conditions: CRBN binding, HTRF, compound at 2 µM
row,Compound,Inhibition Rate at 2 µM (%)
1,O=C1CCC(N2Cc3cc(C(=O)N4CCC(N5CCN(c6cccc(Cl)c6Cl)CC5)CC4)c(F)cc3C2=O)C(=O)N1 (stereo not shown),a5 (53% < a5 ≤ 60%)
2,O=C1CCC(N2Cc3cc(C(=O)N4CCC(N5CCN(C(c6ccccc6)c6ccccc6)CC5)CC4)cc(F)c3C2=O)C(=O)N1 (stereo not shown),a6 (60% < a6 ≤ 70%)
3,O=C1CCC(N2Cc3c(CN4CCC(N5CCN(C(c6ccccc6)c6ccccn6)CC5)C(F)(F)C4)cccc3C2=S)C(=O)N1 (stereo not shown),a8 (80% < a8 ≤100%)
4,O=C1CCC(N2Cc3cc(CCN4CCC(N5CC=C(c6cccc(Cl)c6Cl)CC5)C(F)(F)C4)ccc3C2=O)C(=O)N1 (stereo not shown),a8 (80% < a8 ≤100%)
5,O=C1CCC(N2Cc3cc(CN4CCC(N5CCN(c6noc7cc(F)ccc67)CC5)CC4)c(F)cc3C2=O)C(=O)N1 (stereo not shown),a6 (60% < a6 ≤ 70%)

# Target: CK1α (Homo sapiens, UniProt P48729+Q96SW2)
# Assay: Western blot assay of substrate protein degradation in hPBMCs
# Details: 24 hours treatment, compounds at 50 nM and 500 nM (concentration behind the class not stated)
row,Compound,substrate protein remaining % (CK1a)
1,O=C1CCC(N2Cc3cc(C(=O)N4CCC(N5CCN(c6cccc(Cl)c6Cl)CC5)CC4)c(F)cc3C2=O)C(=O)N1 (stereo not shown),B (80%< substrate protein remaining %≤ 100%)
2,O=C1CCC(N2Cc3cc(C(=O)N4CCC(N5CCN(C(c6ccccc6)c6ccccc6)CC5)CC4)cc(F)c3C2=O)C(=O)N1 (stereo not shown),B (80%< substrate protein remaining %≤ 100%)
3,O=C1CCC(N2Cc3c(CN4CCC(N5CCN(C(c6ccccc6)c6ccccn6)CC5)C(F)(F)C4)cccc3C2=S)C(=O)N1 (stereo not shown),B (80%< substrate protein remaining %≤ 100%)
4,O=C1CCC(N2Cc3cc(CCN4CCC(N5CC=C(c6cccc(Cl)c6Cl)CC5)C(F)(F)C4)ccc3C2=O)C(=O)N1 (stereo not shown),B (80%< substrate protein remaining %≤ 100%)
5,O=C1CCC(N2Cc3cc(CN4CCC(N5CCN(c6noc7cc(F)ccc67)CC5)CC4)c(F)cc3C2=O)C(=O)N1 (stereo not shown),B (80%< substrate protein remaining %≤ 100%)

# Target: GSPT1 (Homo sapiens, UniProt P15170+Q96SW2)
# Assay: as above
# Details: 24 hours treatment, compounds at 50 nM and 500 nM (concentration behind the class not stated)
row,Compound,substrate protein remaining % (GSPT1)
1,O=C1CCC(N2Cc3cc(C(=O)N4CCC(N5CCN(c6cccc(Cl)c6Cl)CC5)CC4)c(F)cc3C2=O)C(=O)N1 (stereo not shown),A (0% ≤ substrate protein remaining % ≤ 80%)
2,O=C1CCC(N2Cc3cc(C(=O)N4CCC(N5CCN(C(c6ccccc6)c6ccccc6)CC5)CC4)cc(F)c3C2=O)C(=O)N1 (stereo not shown),A (0% ≤ substrate protein remaining % ≤ 80%)
3,O=C1CCC(N2Cc3c(CN4CCC(N5CCN(C(c6ccccc6)c6ccccn6)CC5)C(F)(F)C4)cccc3C2=S)C(=O)N1 (stereo not shown),B (80%< substrate protein remaining %≤ 100%)
4,O=C1CCC(N2Cc3cc(CCN4CCC(N5CC=C(c6cccc(Cl)c6Cl)CC5)C(F)(F)C4)ccc3C2=O)C(=O)N1 (stereo not shown),A (0% ≤ substrate protein remaining % ≤ 80%)
5,O=C1CCC(N2Cc3cc(CN4CCC(N5CCN(c6noc7cc(F)ccc67)CC5)CC4)c(F)cc3C2=O)C(=O)N1 (stereo not shown),B (80%< substrate protein remaining %≤ 100%)

# Target: IKZF1 (Homo sapiens, UniProt Q13422+Q96SW2)
# Assay: as above
# Details: 24 hours treatment, compounds at 50 nM and 500 nM (concentration behind the class not stated)
row,Compound,substrate protein remaining % (IKZF 1)
1,O=C1CCC(N2Cc3cc(C(=O)N4CCC(N5CCN(c6cccc(Cl)c6Cl)CC5)CC4)c(F)cc3C2=O)C(=O)N1 (stereo not shown),B (80%< substrate protein remaining %≤ 100%)
2,O=C1CCC(N2Cc3cc(C(=O)N4CCC(N5CCN(C(c6ccccc6)c6ccccc6)CC5)CC4)cc(F)c3C2=O)C(=O)N1 (stereo not shown),B (80%< substrate protein remaining %≤ 100%)
3,O=C1CCC(N2Cc3c(CN4CCC(N5CCN(C(c6ccccc6)c6ccccn6)CC5)C(F)(F)C4)cccc3C2=S)C(=O)N1 (stereo not shown),B (80%< substrate protein remaining %≤ 100%)
4,O=C1CCC(N2Cc3cc(CCN4CCC(N5CC=C(c6cccc(Cl)c6Cl)CC5)C(F)(F)C4)ccc3C2=O)C(=O)N1 (stereo not shown),B (80%< substrate protein remaining %≤ 100%)
5,O=C1CCC(N2Cc3cc(CN4CCC(N5CCN(c6noc7cc(F)ccc67)CC5)CC4)c(F)cc3C2=O)C(=O)N1 (stereo not shown),B (80%< substrate protein remaining %≤ 100%)

# Target: IKZF2 (Homo sapiens, UniProt Q96SW2+Q9UKS7)
# Assay: as above
# Details: 24 hours treatment, compounds at 50 nM and 500 nM (concentration behind the class not stated)
row,Compound,substrate protein remaining % (IKZF2)
1,O=C1CCC(N2Cc3cc(C(=O)N4CCC(N5CCN(c6cccc(Cl)c6Cl)CC5)CC4)c(F)cc3C2=O)C(=O)N1 (stereo not shown),B (80%< substrate protein remaining %≤ 100%)
2,O=C1CCC(N2Cc3cc(C(=O)N4CCC(N5CCN(C(c6ccccc6)c6ccccc6)CC5)CC4)cc(F)c3C2=O)C(=O)N1 (stereo not shown),B (80%< substrate protein remaining %≤ 100%)
3,O=C1CCC(N2Cc3c(CN4CCC(N5CCN(C(c6ccccc6)c6ccccn6)CC5)C(F)(F)C4)cccc3C2=S)C(=O)N1 (stereo not shown),B (80%< substrate protein remaining %≤ 100%)
4,O=C1CCC(N2Cc3cc(CCN4CCC(N5CC=C(c6cccc(Cl)c6Cl)CC5)C(F)(F)C4)ccc3C2=O)C(=O)N1 (stereo not shown),B (80%< substrate protein remaining %≤ 100%)
5,O=C1CCC(N2Cc3cc(CN4CCC(N5CCN(c6noc7cc(F)ccc67)CC5)CC4)c(F)cc3C2=O)C(=O)N1 (stereo not shown),B (80%< substrate protein remaining %≤ 100%)

# Target: IKZF3 (Homo sapiens, UniProt Q96SW2+Q9UKT9)
# Assay: as above
# Details: 24 hours treatment, compounds at 50 nM and 500 nM (concentration behind the class not stated)
row,Compound,substrate protein remaining % (IKZF3)
1,O=C1CCC(N2Cc3cc(C(=O)N4CCC(N5CCN(c6cccc(Cl)c6Cl)CC5)CC4)c(F)cc3C2=O)C(=O)N1 (stereo not shown),B (80%< substrate protein remaining %≤ 100%)
2,O=C1CCC(N2Cc3cc(C(=O)N4CCC(N5CCN(C(c6ccccc6)c6ccccc6)CC5)CC4)cc(F)c3C2=O)C(=O)N1 (stereo not shown),B (80%< substrate protein remaining %≤ 100%)
3,O=C1CCC(N2Cc3c(CN4CCC(N5CCN(C(c6ccccc6)c6ccccn6)CC5)C(F)(F)C4)cccc3C2=S)C(=O)N1 (stereo not shown),B (80%< substrate protein remaining %≤ 100%)
4,O=C1CCC(N2Cc3cc(CCN4CCC(N5CC=C(c6cccc(Cl)c6Cl)CC5)C(F)(F)C4)ccc3C2=O)C(=O)N1 (stereo not shown),B (80%< substrate protein remaining %≤ 100%)
5,O=C1CCC(N2Cc3cc(CN4CCC(N5CCN(c6noc7cc(F)ccc67)CC5)CC4)c(F)cc3C2=O)C(=O)N1 (stereo not shown),B (80%< substrate protein remaining %≤ 100%)

# Target: WEE1 (Homo sapiens, UniProt P30291+Q96SW2)
# Assay: as above
# Details: 24 hours treatment, compounds at 50 nM and 500 nM (concentration behind the class not stated)
row,Compound,substrate protein remaining % (WEE1)
1,O=C1CCC(N2Cc3cc(C(=O)N4CCC(N5CCN(c6cccc(Cl)c6Cl)CC5)CC4)c(F)cc3C2=O)C(=O)N1 (stereo not shown),B (80%< substrate protein remaining %≤ 100%)
2,O=C1CCC(N2Cc3cc(C(=O)N4CCC(N5CCN(C(c6ccccc6)c6ccccc6)CC5)CC4)cc(F)c3C2=O)C(=O)N1 (stereo not shown),B (80%< substrate protein remaining %≤ 100%)
3,O=C1CCC(N2Cc3c(CN4CCC(N5CCN(C(c6ccccc6)c6ccccn6)CC5)C(F)(F)C4)cccc3C2=S)C(=O)N1 (stereo not shown),A (0% ≤ substrate protein remaining % ≤ 80%)
4,O=C1CCC(N2Cc3cc(CCN4CCC(N5CC=C(c6cccc(Cl)c6Cl)CC5)C(F)(F)C4)ccc3C2=O)C(=O)N1 (stereo not shown),B (80%< substrate protein remaining %≤ 100%)
5,O=C1CCC(N2Cc3cc(CN4CCC(N5CCN(c6noc7cc(F)ccc67)CC5)CC4)c(F)cc3C2=O)C(=O)N1 (stereo not shown),A (0% ≤ substrate protein remaining % ≤ 80%)
